Earlier results in US5375693A (Sepracor, Inc., priority 1994, dated 1994).

Key:
H-1 histamine receptor [1] = conditions: cited from earlier work
H-1 histamine receptor [2] = conditions: Rhesus monkeys; cited from earlier work
H-2 histamine receptor [3] = conditions: guinea pig; cited from earlier work
H-2 histamine receptor [4] = conditions: isolated guinea pig atria; cited from earlier work

CC(C)(C)c1ccc(C(O)CCCN2CCC(C(O)(c3ccccc3)c3ccccc3)CC2)cc1 (racemic) [Terfenadine]
effect of histamine in the guinea pig isolated ileum (H-1 histamine receptor [1]): antagonizes the effect of histamine in the guinea pig isolated ileum
histamine-induced whealing in the skin (H-1 histamine receptor [2]): suppresses histamine-induced whealing in the skin of Rhesus monkeys
effect on histamine-induced gastric acid secretion (H-2 histamine receptor [3]): no effect on histamine-induced gastric acid secretion
chronotropic effect of histamine on atria (H-2 histamine receptor [4]): nor does it alter the chronotropic effect of histamine on atria
